From patent publication US20250320281A1 (published 2025)
Substitutions are numbered along the chain they refer to.

B1: 1456_P20 (PG20) (antibody, V domains shown)
VH: QVRLVQSGPEVKKPGSSVTVSCQASGGTFSSYAFTWVRQAPGQGLEWLGMVTPIFGEAKYSQRFEGRVTITADESTSTTSIELRGLTSEDTAIYYCARDRRAVPIATDNWLDPWGQGTLVTVSS
VL: DIQLTQSPSSLSASVGDRVSITCRASQTINNYLNWYQQTPGKAPKLLIYGASNLQNGVPSRFSGSGSGTDFTLTISSLQPEDFATYYCQQSFSTPRTFGQGTRLDIKR
B2: 1456_P20 (PG20) (antibody, V domains shown)
VH: B1 VH
VL: B1 VL
B3: 1460_G14 (PGG14) (antibody, V domains shown)
VH: QVLLVQSGTEVKKPGSSVKVSCQASGGAFSSYAFSWVRQAPGQGLEWMGMITPVFGETKYAPRFQGRLTLTAEESLSTTYMELRSLTSDDTAFYYCTRDRRVVPMATDNWLDPWGQGTLVTVSS
VL: B1 VL with S20T, I21V, N30H, N31T, T39I, N53T, N56S, S76N, F92Y

Key:
[1] = molecular target: aMLV envelope on pseudotyped virus (negative control) (aMLV); assay: cell-based or functional assay
[2] = molecular target: aMLV envelope protein on pseudovirus; assay: cell-based or functional assay

| Binder | Neutralizing Antibody Assay: IC50; Virus/Ab Incubation 1 hour [1] | Neutralizing Antibody Assay: IC50; Virus/Ab Incubation 18 hour [1] | IC50, pseudovirus neutralization [2] |
| --- | --- | --- | --- |
| B1 | > 50 µg/mL | > 50 µg/mL |  |
| B2 |  |  | > 50 µg/mL |
| B3 |  |  | > 50 µg/mL |
